# AlphaSeq binding of Ab-14 heavy chain variants to a spike HR2 peptide

Reference: Li et al. 2023, doi:10.1038/s41467-023-39022-2. File: FLAb, binding data.

The target is the same throughout: PDVDLGDISGINAS, from the HR2 region of SARS-CoV-2 spike.

Each scFv is VH, three GGGGS repeats, VL, as in the parent Ab-14, and differs from it in the CDRs of the heavy chain only.
VH: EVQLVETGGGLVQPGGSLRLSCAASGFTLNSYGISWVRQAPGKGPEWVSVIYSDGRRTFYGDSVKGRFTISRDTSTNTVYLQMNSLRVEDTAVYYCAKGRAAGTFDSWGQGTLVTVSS
VL: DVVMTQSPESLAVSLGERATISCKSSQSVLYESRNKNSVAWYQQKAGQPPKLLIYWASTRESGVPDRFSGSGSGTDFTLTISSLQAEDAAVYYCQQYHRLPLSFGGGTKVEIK

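Designed CDR sequences, proposed from the first random library and measured here. Their group label is 14H_En_Gen (En: ensemble of fine-tuned language models; Gen: genetic algorithm). The scFvs were displayed on barcoded MATa yeast, the peptide on MATalpha yeast. Mating (16 h, 30 °C) was followed by selection of diploids and sequencing of their barcodes. Each replicate has its own calibration line, from reference interactions of the BCL2 family. Each pool was mated in six replicate cultures.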

Variants are written as CDR1, CDR2 and CDR3 of the heavy chain (limits as in the source). Parent: GFTLNSYGIS, VIYSDGRRTFYGDSVK, GRAAGTFDS. Values are log10 of the apparent Kd in nM; lower means stronger binding. A mean of the replicates is given; it leaves out those without a signal. "n.d." marks a missing value. The strain was present, yet no cells mated with the target were sequenced in that replicate, which points to weak or no binding. The range of this assay differs from that of the first round, and the authors advise against merging the two. The authors' rule: three or more of the six replicates give a measured affinity, fewer mean a poor binder. Of ten entries with the parent sequence, four were seen in most replicates (averages 0.34 to 2.37), three in one and three in none, so single entries are noisy. As a blank, each scFv also met three strains without target: over all heavy chain designs, 1% of these pairings were detected, typically at 2.08 and seldom below 0.84. Also given: how often the same scFv was detected with the empty control strains, with their mean in brackets.

CDR-H1,CDR-H2,CDR-H3,log10 Kd (nM) by replicate,"log10 Kd (nM), mean",empty controls
GFDLNEYGIS,VIYADGMRTYYADDVK,GNVAGTFDQ,-0.98 / 0.82 / -1.05 / -0.01 / -0.32 / 0.59,-0.16,0 of 18
GFDLNEYGIS,VIYADGMRTVYADSVK,GNQAGTFDI,-0.25 / -0.84 / -0.39 / -0.18 / 0.24 / 0.32,-0.19,0 of 18
GFDLNEYGIS,VIYADGKRTAYADDVK,GNVAGTFDQ,-0.32 / 0.22 / -0.20 / -0.32 / -0.09 / 0.03,-0.12,0 of 18
GFDLNEYGIS,VIYADGKRTAYADSVK,GNNAGTFDM,-0.23 / -0.83 / -0.74 / -0.78 / -0.75 / -0.84,-0.69,0 of 18
GFDLDEYGIS,VIYADGKRTAYADDVK,GNNAGTFDI,n.d. / -0.02 / -0.14 / n.d. / n.d. / -1.11,-0.42,0 of 18
GFDLDEYGIS,VIYADGMRTAYVDSVK,GNVAGTFDL,0.07 / -0.07 / -0.50 / -0.28 / -0.18 / -0.18,-0.19,0 of 18
GFDLNEYGIS,VIYADGMRTFYADSVK,GEVAGTFDM,-0.17 / 0.11 / -0.22 / -0.13 / -0.25 / -0.06,-0.12,0 of 18
GFDLNEYGIS,VIYADGRRTYYADSVK,GNVAGTFDQ,-0.35 / -0.37 / -0.72 / -0.65 / -0.40 / -0.66,-0.52,0 of 18
GFDLNEYGIS,VIYADGKRQAYADSVK,GNVAGTFDL,-0.46 / -0.45 / -0.60 / -0.51 / -0.30 / -0.18,-0.42,0 of 18
GFDLDEYGIS,VIYADGKRTAYSDSVK,GNQAGTFDI,n.d. / 1.38 / 0.87 / 1.24 / 0.79 / 0.51,0.96,0 of 18
GFDLNEYGIS,VIYADGKRTFYADSVK,GQVAGTFDV,-0.17 / -0.17 / -0.57 / -0.18 / -0.42 / -0.08,-0.27,0 of 18
GFDLNEYGIS,VIYADGLRTAYADDVK,GNVAGTFDL,-0.23 / -0.29 / -0.22 / -0.10 / -0.58 / -0.23,-0.27,0 of 18
GFDLNEYGIS,VIYADGSRTAYADSVK,GNQAGTFDV,-0.05 / -0.40 / -0.36 / -0.51 / -0.40 / -0.21,-0.32,0 of 18
GFDLNEYGIS,VIYADGKRTAYADDVK,GSNAGTFDV,-0.81 / -0.15 / -0.82 / -0.91 / -0.84 / -0.70,-0.71,0 of 18
GFDLEDYGIS,VIYADGMRTAYSDSVK,GQVAGTFDV,-0.38 / -0.42 / -0.31 / -0.54 / -0.35 / -0.48,-0.41,0 of 18
GFDLNEYGIS,VIYADGRRTFYADDVK,GNVAGTFDV,-0.36 / -0.28 / -0.61 / -0.64 / -0.51 / -0.50,-0.48,0 of 18
GFDLNEYGIS,VIYADGMRTAYSDSVK,GNIAGTFDI,-0.46 / -0.52 / -0.09 / -0.21 / 0.14 / -0.47,-0.27,0 of 18
GFDLDEYGIS,VIYADGKRTAYSDSVK,GNQAGTFDV,-0.13 / -0.74 / -0.65 / -0.45 / -0.71 / -0.14,-0.47,0 of 18
GFDLNEYGIS,VIYADGRRTAYSDSVK,GETAGTFDV,-0.55 / -0.21 / -0.61 / -0.35 / -0.27 / -0.30,-0.38,0 of 18
GFDLNEYGIS,VIYADGVRTVYADSVK,GNVAGTFDQ,-0.54 / -0.32 / -0.63 / -0.69 / -0.87 / -0.43,-0.58,0 of 18
GFDLNEYGIS,VIYADGMRTFYADDVK,GNTAGTFDV,-0.56 / -0.84 / -0.56 / -0.88 / -0.71 / -0.56,-0.69,0 of 18
GFDLDEYGIS,VIYADGMRTAYADSVK,GTNAGTFDM,0.55 / 0.35 / 0.79 / 0.55 / -0.09 / 0.35,0.42,0 of 18
GFDLNEYGIS,VIYADGMRTVYSDSVK,GNQAGTFDV,-1.10 / n.d. / -0.44 / -1.31 / -0.17 / n.d.,-0.76,0 of 18
GFDLNEYGIS,VIYADGMRTAYSDSVK,GQVAGTFDV,-0.20 / -0.31 / -0.80 / -0.62 / -0.86 / -0.36,-0.53,1 of 18 (2.58)
GFDLNEYGIS,VIYADGMRTAYSDSVK,GNVAGTFDA,-0.02 / -0.48 / -0.48 / -0.88 / -0.36 / -0.42,-0.44,0 of 18
GFDLNEYGIS,VIYADGMRKAYSDSVK,GNVAGTFDI,-0.45 / -0.69 / -0.02 / -0.24 / -0.51 / 0.00,-0.32,0 of 18
GFDLNEYGIS,VIYADGSRTAYADDVK,GNTAGTFDV,-0.40 / -0.80 / -0.57 / -1.00 / -0.61 / -0.70,-0.68,0 of 18
GFDLEDYGIS,VIYADGQRTAYSDSVK,GENAGTFDV,0.04 / 0.31 / 0.04 / -0.33 / -0.08 / 0.21,0.03,0 of 18
GFDLNEYGIS,VIYADGMRQAYADSVK,GNVAGTFDL,-0.39 / -0.64 / -0.72 / -0.62 / -0.90 / -0.56,-0.64,0 of 18
GFDLDEYGIS,VIYADGMRTAYADDVK,GENAGTFDI,-0.19 / -0.80 / -0.58 / -0.47 / -0.43 / -0.29,-0.46,0 of 18
GFDLNEYGIS,VIYADGQRTYYADSVK,GNVAGTFDT,-0.15 / -0.33 / -0.28 / -0.65 / -0.27 / -0.32,-0.33,0 of 18
GFDLDEYGIS,VIYADGMRTAYSDSVK,GHNAGTFDV,n.d. / n.d. / n.d. / n.d. / n.d. / n.d.,n.d.,0 of 18
GFDLDEYGIS,VIYADGMRTAYTDSVK,GNNAGTFDL,0.22 / -0.15 / 0.08 / -0.05 / -0.23 / -0.01,-0.03,0 of 18
GFDLNEYGIS,VIYADGMRTYYVDSVK,GNVAGTFDV,0.01 / -0.22 / -0.24 / -0.14 / -0.09 / -0.19,-0.15,0 of 18
GFDLNEYGIS,VIYADGRRTAYADDVK,GNQAGTFDI,0.36 / 0.11 / -0.23 / 0.03 / 0.00 / 0.42,0.12,0 of 18
GFDLNEYGIS,VIYADGRRKAYADSVK,GNVAGTFDQ,-0.59 / -0.28 / -0.47 / -0.79 / -0.61 / -0.81,-0.59,0 of 18
GFDLNEYGIS,VIYADGMRTAYSDSVK,GKNAGTFDI,-0.28 / -0.57 / -0.47 / -0.40 / -0.26 / -0.41,-0.40,1 of 18 (2.05)
GFDLDEYGIS,VIYADGKRTYYADSVK,GENAGTFDI,-0.86 / -1.25 / -0.92 / -1.42 / -1.06 / -1.41,-1.15,0 of 18
GFDLNEYGIS,VIYADGMRTAYADDVK,GNVAGTFDV,-0.27 / -0.56 / -0.51 / -0.85 / -0.72 / -0.52,-0.57,0 of 18
GFDLNEYGIS,VIYADGMRTYYADSVK,GEVAGTFDT,-0.06 / 0.11 / 0.06 / -0.35 / 0.31 / 0.32,0.07,0 of 18
GFDLNEYGIS,VIYADGMRTAYADSVK,GSQAGTFDV,-0.38 / -0.36 / -0.17 / 0.16 / -0.08 / 0.30,-0.09,0 of 18
GFDLDEYGIS,VIYADGQRTAYSDSVK,GANAGTFDV,-0.11 / -0.19 / -0.50 / -0.23 / -0.66 / -0.10,-0.30,0 of 18
GFDLNEYGIS,VIYADGVRTAYADSVK,GENAGTFVI,n.d. / 2.36 / 1.61 / 1.23 / n.d. / 2.42,1.90,0 of 18
GFDLDEYGIS,VIYADGMRTAYVDSVK,GEVAGTFDL,0.77 / 0.16 / -0.04 / 0.73 / 0.35 / 0.05,0.34,0 of 18
GFDLNEYGIS,VIYADGMRTAYADKVK,GQNAGTFDL,0.41 / -0.65 / -1.01 / -1.16 / -1.00 / -0.77,-0.70,0 of 18
GFDLNEYGIS,VIYADGVRTAYADSVK,GQNAGTFDI,-0.56 / -0.37 / -0.97 / -1.03 / -0.87 / -0.40,-0.70,0 of 18
GFDLNEYGIS,VIYADGVRTAYSDSVK,GEVAGTFDM,0.58 / 0.00 / -0.07 / 0.35 / 0.02 / 0.17,0.17,1 of 18 (1.73)
GFDLDEYGIS,VIYADGKRTAYADSVK,GNNAGTFDI,-0.47 / -0.97 / -0.91 / -0.97 / -0.77 / -0.65,-0.79,0 of 18
GFDLDEYGIS,VIYADGRRTAYADDVK,GNNAGTFDV,-0.27 / -0.42 / -0.19 / -0.31 / -0.07 / -0.03,-0.22,1 of 18 (2.23)
GFDLNEYGIS,VIYADGMRQAYADSVK,GTNAGTFDV,0.74 / 0.40 / 0.78 / 0.52 / 0.99 / 0.08,0.58,0 of 18
GFDLNEYGIS,VIYADGMRTVYADSVK,GGNAGTFDI,-0.65 / -1.09 / -0.41 / -1.22 / -0.56 / -0.52,-0.74,1 of 18 (2.27)
GFDLNEYGIS,VIYADGVRTFYADSVK,GNQAGTFDI,-0.22 / -0.18 / -0.71 / -0.98 / -0.60 / -0.31,-0.50,0 of 18

The first 3 entries again:

CDR-H1,CDR-H2,CDR-H3,log10 Kd (nM) by replicate,"log10 Kd (nM), mean",empty controls
GFDLNEYGIS,VIYADGMRTYYADDVK,GNVAGTFDQ,-0.98 / 0.82 / -1.05 / -0.01 / -0.32 / 0.59,-0.16,0 of 18
GFDLNEYGIS,VIYADGMRTVYADSVK,GNQAGTFDI,-0.25 / -0.84 / -0.39 / -0.18 / 0.24 / 0.32,-0.19,0 of 18
GFDLNEYGIS,VIYADGKRTAYADDVK,GNVAGTFDQ,-0.32 / 0.22 / -0.20 / -0.32 / -0.09 / 0.03,-0.12,0 of 18